Nrf2 block = blocks Nrf2 signaling; A549 ARE-Fluc reporter, luciferase luminescence, 18-24 h; Potency, µM (series often up to 46 µM), for the others: at the highest dose activity change, negative = inhibition, most hits filed as inhibitors; 360,000 compounds, 2.1% hits; AID 504444; further: potency means the concentration at half of the fitted maximal effect; on the % scale 0 is the no-effect control and ±100 the full control effect; nearly all actives have a fitted effect of over 60% in size
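Two sequential reads on A549 ARE_Fluc cells exposed to compound for 18-24 h: a CellTiter-Fluor fluorescence read for viability, then a luciferase luminescence read for Nrf2/ARE activity.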
IL2 activator = activators of IL-2; activation, % (series mostly up to about 46 µM); IL-2 activation reporter assay, cell-based qHTS; stimulated with anti-CD3/CD4/CD28 beads; in transgenic mouse T cells; 360,000 compounds, 0.065% hits; in the data active means activation above about 50%; inconclusive means mostly about 30% to 49%; further: 0% is about no effect
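Readout: EGFP and DsRed signals by fluorescent plate cytometry. Unstimulated transgenic mouse T cells received compound 60 min before antibody-bead stimulation, then incubated 18 h at 37 degrees C.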
miR-21 reporter = raises the signal of a miR-21 reporter | HeLa miR-21 FLuc reporter, luciferase, 48 h | Potency, µM (highest dose often 38.3 µM), for inactives: at the highest dose reporter change, positive = more light | 340,000 tested, under 10 active | AID 2288; active = well fitted rising curve with a large enough effect; inconclusive = small, poorly fitted or top-dose-only effect; inactive = no such curve, though single readings can be large or run the other way;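 also: % of control where 0% means no effect; miR-21 action dims this reporter so a rising signal means less miR-21 action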
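HeLa cells endogenously expressing miR-21, stably carrying CMV-driven firefly luciferase with a downstream miR-21 binding site, 2000 cells/well. Titrations up to approximately 40 uM, 48 hours; luciferase luminescence read.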
Nrf2 ARE act = activators of Nrf2 (ARE) signaling. AID 624171. Potency, µM (titrated, usually from 46.1 µM), inactives show at the highest dose activation, usual class: activators. AREc32 ARE-luciferase reporter (MCF7-derived line), luminescence, 24 h. 410,000 compounds, 0.31% hits; further: potency means the concentration at half of the fitted maximal effect; % of control where 0% means no effect; nearly all actives have a fitted effect of over 65% in size
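Quantitative high-throughput format: AREc32 reporter cells, 1000 per well, received compound by pin transfer and were incubated 24 hr at 37 deg C, 5% CO2, before Steady-Glo luminescence detection.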
ClpP mod = qHTS Assay for Activators of ClpP; ATP-dependent Clp protease proteolytic subunit (Bacillus subtilis (strain 168)), P80244; purified B. subtilis ClpP, FRET peptide cleavage, 20 min; Potency, µM (top dose mostly 57.5 µM), inactives show at the top dose activity change, negative = active; 340,000 compounds, 1.9% hits; AID 651965, 2013; active means well fitted falling curve with a large enough effect; inconclusive means small, poorly fitted or top-dose-only effect; inactive means no such curve, though single readings can be large or run the other way; further: potency means the concentration at half of the fitted maximal effect; the source files actives as falling curves though it sought activators and does not explain the sign; nearly all actives have a fitted effect of over 65% in size
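ClpP 10 microg/mL final, pH 8 Tris/KCl buffer with BSA, glycerol, Tween-20; compound pinned in; FRET-FV substrate; RT 20 min; Ex320/Em430; ΔFRET vs ADEP 5.8 microM, DMSO, no enzyme.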
A549 tox = counter-screen for Nrf2 inhibitors: cytotoxicity in A549 cells; A549 ARE-Fluc cells, CellTiter-Fluor viability, 18-24 h; Potency, µM (titrated, usually from 46 µM), for inactives: top-dose activity change, negative = cytotoxicity, usual class: inhibitors; 390,000 compounds, 0.16% hits; further: potency means the concentration at half of the fitted maximal effect; on the % scale 0 is the no-effect control and ±100 the full control effect
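A549 ARE-Fluc cells in 5% FBS OPTI-MEM, 5000 cells/well, rested 2 h then exposed to compounds in concentration-response for 18-24 h at 37 °C. Viability by CellTiter-Fluor fluorescence (Ex 405/Em 525) after 30 min; luciferase luminescence (BugLite, 15 min, RT) read afterwards.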
The depositor's hits bear a star; ? = inconclusive; nt = no result. Shown are actives, neighbours in structure and some others; about 3.7% of the full set was active somewhere. Unless noted, the call rests on the fitted dose curve; in most records, active means well fitted curve in the direction sought with a large enough effect; inconclusive means small, poorly fitted or top-dose-only effect, or another doubt; inactive means no such curve, though single readings can be large; an effect the other way counts as inactive or inconclusive.

Chains of the proteins cited; added tags and fusions are not shown.
ATP-dependent Clp protease proteolytic subunit (Bacillus subtilis (strain 168)), P80244, UniProt P80244, whole entry, looked up: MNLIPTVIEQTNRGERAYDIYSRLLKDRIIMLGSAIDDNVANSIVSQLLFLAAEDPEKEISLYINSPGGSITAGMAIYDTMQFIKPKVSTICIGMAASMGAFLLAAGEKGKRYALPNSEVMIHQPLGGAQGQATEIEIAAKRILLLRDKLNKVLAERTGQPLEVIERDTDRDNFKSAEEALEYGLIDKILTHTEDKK

Results follow in this order: Nrf2 block	IL2 activator	miR-21 reporter	Nrf2 ARE act	ClpP mod	A549 tox
1. Cc1nc(NC(=O)c2ccc(Cl)cc2)nc2cc3c(cc12)OCO3
    ?	0	-11%	15%	?	-11%
2. Cc1cc(C)nc(Nc2nc(C)c3cc4c(cc3n2)OCO4)n1
    2%	0	0%	0%	16µM*	0%
3. CC1CCC2(CC1)NC(=O)N(Cc1cccc(C(F)(F)F)c1)C2=O (stereo not drawn)
    18µM*	0	2%	7%	nt	-1%
4. Clc1cccc(CNc2cc(-c3ccccc3)nc3nncn23)c1
    ?	nt	26%	-1%	?	-11%
5. N=c1n(CC(=O)c2ccc([N+](=O)[O-])cc2)c2ccccc2n1Cc1ccc(Cl)cc1
    -12%	65*	-6%	0%	1%	12%
6. N=c1n(CC(=O)c2ccc([N+](=O)[O-])cc2)c2ccccc2n1Cc1ccccc1
    -19%	9	-12%	-1%	0%	-4%
7. CCC(C(=O)OCC(=O)Nc1cc(Cl)ccc1Cl)c1ccccc1 (stereo not drawn)
    2%	0	-6%	0%	25µM*	-1%
8. Cc1ccc2cc(C#N)c(NCCNC(=S)NCCCN(C)C)nc2c1C
    11%	-3	?	0%	?	5%
9. CCOc1ccc2nc(NCCNC(=O)CC)c(C#N)cc2c1
    -18%	0	-10%	0%	?	?
10. Cc1ccc2cc(C#N)c(NCCNC(=O)C3CC3)nc2c1C
    7.3µM*	1	-7%	0%	35µM*	-19%
11. CCC(=O)NCCNc1nc2cc(C)c(C)cc2cc1C#N
    4%	0	-4%	0%	13µM*	-4%
12. NS(=O)(=O)c1cccc(NC(=O)COC(=O)CCSc2ccccc2)c1
    -7%	-5	-8%	-2%	16µM*	3%
13. Cc1cc2c(s1)c1cnn(Cc3cc(OC(F)(F)F)ccc3F)c(=O)c1n2C
    -3%	nt	nt	nt	nt	1%
14. CCOC(=O)C1CCN(C(=O)CSc2n[nH]c(-c3ccc(F)cc3)n2)CC1
    nt	nt	10%	-1%	0%	13%
15. Cc1cc(Br)ccc1NC(=O)CN(C)C(=O)CSC(=S)N1CCCC1
    0%	0	nt	0%	3.2µM*	4%
16. CC1(C)Cc2cccc(OCC(=O)OCC(=O)Nc3ccc(C(N)=O)cc3)c2O1
    20%	-3	nt	0%	25µM*	1%
17. Cc1cc(Br)ccc1NC(=O)CN(C)C(=O)COc1cccc2c1OC(C)(C)C2
    21µM*	0	nt	0%	2%	0%
18. COc1cccc(NC(=O)COC(=O)COc2cccc3c2OC(C)(C)C3)c1
    15%	-4	2%	0%	2%	2%
19. CC1(C)Cc2cccc(OCC(=O)OCC(=O)Nc3ccccc3)c2O1
    15%	-3	nt	1%	-2%	-14%
20. COc1ccc(NC(=O)COc2cccc3c2OC(C)(C)C3)cc1OC
    18µM*	0	nt	1%	0%	-10%
21. CC(Oc1ccccc1)c1ccnc2nc(/N=C/N(C)C)nn12 (stereo not drawn)
    nt	5	-17%	0%	28µM*	3%
22. CC(Oc1cccc(F)c1)c1ccnc2nc(/N=C/N(C)C)nn12 (stereo not drawn)
    ?	-1	-13%	0%	nt	9%
23. Cc1cc(C)cc(OC(C)c2ccnc3nc(/N=C/N(C)C)nn23)c1 (stereo not drawn)
    nt	10	-20%	-1%	28µM*	-2%
24. Cc1ccc(-c2csc3nc[nH]c(=S)c23)cc1
    ?	0	-16%	3%	1%	-7%
25. Cc1cc(-c2csc3nc[nH]c(=S)c23)cc(C)c1C
    23µM*	-2	7%	9%	nt	?
26. Cc1ccc(-c2n[nH]c(=S)n2/N=C/C=C/c2ccccc2[N+](=O)[O-])cc1
    -18%	-3	-6%	?	-3%	-16%
27. O=[N+]([O-])c1ccccc1/C=C/C=N/n1c(-c2ccco2)n[nH]c1=S
    7%	0	-9%	10µM*	nt	-4%
28. S=c1[nH]nc(-c2ccco2)n1/N=C/c1cccc(Cl)c1
    -3%	0	1%	13µM*	-2%	3%
29. CCC(Cn1nnc2ccccc2c1=O)NC(=O)Nc1ccccc1Cl (stereo not drawn)
    6%	nt	6%	-1%	1%	9%
30. CC(=O)OCC1OC(Sc2cccc3cccnc23)C(OC(C)=O)C(OC(C)=O)C1OC(C)=O (stereo not drawn)
    -11%	-2	3%	3%	16µM*	-1%

The last 5 records of the section before are carried over, then new ones follow:
Results follow in this order: Nrf2 block	IL2 activator	miR-21 reporter	Nrf2 ARE act	ClpP mod	A549 tox
26. Cc1ccc(-c2n[nH]c(=S)n2/N=C/C=C/c2ccccc2[N+](=O)[O-])cc1
    -18%	-3	-6%	?	-3%	-16%
27. O=[N+]([O-])c1ccccc1/C=C/C=N/n1c(-c2ccco2)n[nH]c1=S
    7%	0	-9%	10µM*	nt	-4%
28. S=c1[nH]nc(-c2ccco2)n1/N=C/c1cccc(Cl)c1
    -3%	0	1%	13µM*	-2%	3%
29. CCC(Cn1nnc2ccccc2c1=O)NC(=O)Nc1ccccc1Cl (stereo not drawn)
    6%	nt	6%	-1%	1%	9%
30. CC(=O)OCC1OC(Sc2cccc3cccnc23)C(OC(C)=O)C(OC(C)=O)C1OC(C)=O (stereo not drawn)
    -11%	-2	3%	3%	16µM*	-1%
31. CCOc1ccc(CNC(=O)c2cnc3sc(N4CCC(C)CC4)nn3c2=O)cc1OC
    ?	nt	-1%	0%	-15%	0%
32. Cc1ccc(C(c2nnnn2C2CCCCC2)N(C)C2CCCCC2)cc1 (stereo not drawn)
    26µM*	0	-5%	0%	-1%	1%
33. CC(C)C(c1nnnn1C1CCCC1)N(C)C1CCCCC1 (stereo not drawn)
    14%	-1	-3%	-1%	0%	6%
34. Cc1cccc(NC(=O)CSc2ncnc3sc(C)c(C)c23)n1
    ?	-3	-5%	10%	-2%	-4%
35. CC1CCc2c(sc3ncnc(SCC(=O)N(C)C4CCS(=O)(=O)C4)c23)C1 (stereo not drawn)
    16µM*	0	nt	0%	2%	-4%
36. CCN(C(=O)CSc1ncnc2sc(C)c(C)c12)C1CCS(=O)(=O)C1 (stereo not drawn)
    13µM*	-5	-2%	0%	nt	-1%
37. CC(=O)CSc1ncnc2sc3c(c12)CCC(C)C3 (stereo not drawn)
    16%	2	-49%	6%	0%	11%
38. CCCN(CC1CC1)C(=O)CSc1ncnc2sc(C)c(C)c12
    ?	0	9%	1%	-5%	-1%
39. Cc1sc2ncnc(SCC(=O)c3cccs3)c2c1C
    ?	-3	-50%	14µM*	-1%	-15%
40. CC(CCc1ccccc1)NC(=O)Cn1c(=O)nc(-c2ccccc2F)c2cc(Cl)ccc21 (stereo not drawn)
    nt	nt	17%	-1%	4%	?
41. COc1ccc(NC(=O)CN2C(=O)CCn3nc(-c4cccn4C)cc32)cc1Cl
    nt	nt	-7%	1%	-2%	8%
42. CC(=O)NC(CC(=O)Nc1nc(-c2ccc(N(C)S(C)(=O)=O)cc2)cs1)c1ccccc1 (stereo not drawn)
    21µM*	0	?	4%	nt	-24%

Single values from the results shown:
cpd 32 in ClpP mod → -1%
cpd 40 in ClpP mod → 4%
